Results: PubChem BioAssay AID1467 (National Center for Advancing Translational Sciences (NCATS), 2008)
This is a selection; strong and weak results do not stand in their true shares. The source made the active and inactive calls. Calls come from the whole dose curve; as a rule, active = well fitted curve in the direction sought with a large enough effect; inconclusive = small, poorly fitted or top-dose-only effect, or effect the other way, or another doubt; inactive = no such curve, though single readings can be large or run the other way.

Chains of the proteins cited; added tags and fusions are not shown.
UniProt P06280, whole entry: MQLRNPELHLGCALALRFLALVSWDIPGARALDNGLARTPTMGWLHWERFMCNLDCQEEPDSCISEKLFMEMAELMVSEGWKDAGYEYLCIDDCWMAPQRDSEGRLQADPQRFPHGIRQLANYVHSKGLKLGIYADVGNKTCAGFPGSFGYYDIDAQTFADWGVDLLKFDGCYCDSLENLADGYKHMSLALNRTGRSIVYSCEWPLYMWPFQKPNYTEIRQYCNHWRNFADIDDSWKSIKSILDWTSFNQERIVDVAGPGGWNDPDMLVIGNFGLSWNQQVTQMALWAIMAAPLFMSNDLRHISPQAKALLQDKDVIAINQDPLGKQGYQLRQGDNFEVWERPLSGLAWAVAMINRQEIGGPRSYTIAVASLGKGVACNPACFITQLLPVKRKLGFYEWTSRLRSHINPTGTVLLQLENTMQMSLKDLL

These molecules were tested against Alpha-galactosidase A (Homo sapiens) (UniProt P06280) (assay: qHTS Assay for Inhibitors of Human alpha-Galactosidase at pH 4.5.). Conditions: purified enzyme, 4-MU-alpha-Gal fluorescence; at 105 µM (top of the series).
Description: NIH Chemical Genomics Center [NCGC]
NIH Molecular Libraries Probe Production centers Network [MLPCN]
Assay Submitter (PI): Wei Zheng
Alpha-galactosidase is a homodimeric glycoprotein that hydrolyzes the terminal alpha-galactosyl moieties from glycolipids and glycoproteins. Deficiency of this enzyme results in Fabry Disease with progressive accumulation of globotriaosylceramide and other glycosphingolipids in vascular endothelial cells that causes renal failure, myocardial infarction and stroke, and premature death in patients. It has been reported that the improper folding and trafficking of alpha-galactosidase resulting from the genetic mutations may account for a significant numbers of Fabry patients. […] We optimized this alpha-galactosidase assay in 1536-well plate format for identifying the novel small molecule inhibitors with the structures other than the sugar analogs in order to develop the new pharmacological chaperones. […]
This is a fluorogenic enzyme assay with 4-Methylumbelliferyl alpha-D-galactopyranoside as the substrate and human […] as the enzyme preparation. […] This fluorescence which can be detected by a standard fluorescence plate reader. […] In the AC50 values were determined from concentration-response data modeled with the standard Hill equation. […]
(6) Detect the assay plate in a ViewLux plate reader (PerkinElmer) with Ex=365 nm and Em=440nm. […]
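Note: 0% = full activity with enzyme and -100% = basal without enzyme.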

Row | Compound | activity change, negative = inhibition
1 | CN(CCCl)CCCl | inactive: -0.809%
